{"source": "patent US10583094B2", "assay": "Tissue distribution of fluorescent-tagged drug after MCA stroke (MCE model)", "type": "in vivo, rat", "conditions": "6 hr after stroke", "note": "Entries after “also recorded” stand apart in the source; their conditions may differ.", "data": [{"substance": "BODIPY-FL-glyburide [BODIPY-glibenclamide]", "values": [{"measurement": "Fluorescent labeling of cells, microvessels and capillaries in peri-infarct / ischemic regions", "value": "clearly labeled; also recorded: fluorescent labeling was evident"}]}]}
